From patent publication US20190247357A1, “NANOPARTICLE FORMULATIONS AND METHODS OF MAKING AND USING THEREOF” (Abraxis BioScience, LLC, priority 2016, published 2019)

Experiments:
[1] = Particle size of antibody-conjugated nab-paclitaxel nanoparticles; format: physicochemical
Protocol: During this procedure, the solution was protected from light. While still protected from light, the linker/antibody solution was reacted on a shaker for 2 hours.
The conjugation solution was removed from 4° C. […] The particle size was measured.
The paclitaxel content was measured using RP-HPLC. The paclitaxel concentration was then adjusted according to the required concentration. The particle size and paclitaxel concentration for the final formulation was measured. […] The resulting solution was then transferred to vials and stored at −80° C.
The Eppendorf tubes were centrifuged to pellet the nanoparticles, and the supernatant was decanted. The pellets were washed three times with PBS. 500 μL of PBS was added to each tube and the pellet was resuspended by sonication (5 seconds and repeated until the particles were resuspended). Particle size was determined using Dynamic Light Scattering.
The particle sizes of the samples were measured.
The paclitaxel content was measured by RP-HPLC and was then adjusted to 5.33 mg/mL. The particle size was measured by DLS. […] The resulting solution was then transferred to vials and stored at −80° C.

[2] = system: SK-BR-3; test: Anti-proliferation assay (Cell Titer-Glo); format: cell-based; settings: 3 days of treatment
Protocol: (§1) Anti-proliferation assay. The growth inhibitory activity in vitro was evaluated using an anti-proliferative assay. 40 μL/well of cells was plated into 384-well plates (Corning, 3712) at their optimized densities and allowed to incubate overnight at 37° C. and 5% CO2 The following day, cells were treated with test trastuzumab-nanoparticle formulations and placed back into the incubator at 37° C. and 5% CO2 for 3 days. After 3 days of treatment, cell viability was assessed via the addition of 20 μL/well of Cell Titer-Glo (Promega, G7573). After 30 minutes of incubation, plates were read on the Perkin Elmer Envision for luminescence detection.

[3] = system: MDA-MB-468; test: Anti-proliferation assay (Cell Titer-Glo); format: cell-based; settings: 3 days of treatment
Protocol: as §1

[4] = system: BT-474; test: Anti-proliferation assay (Cell Titer-Glo); format: cell-based; settings: 3 days of treatment
Protocol: as §1

[5] = system: CAL-51; test: Anti-proliferation assay (Cell Titer-Glo); format: cell-based; settings: 3 days of treatment
Protocol: as §1

[6] = final formulation, washed particles resuspended in HSA solution
[7] = conjugation solution after overnight incubation at 4° C.

Row | Substance | average particle size [1, 6] [nm] | average particle size [1, 7] [nm] | also measured
1 | 5:1 cetuximab | 149 |  | 
2 | 10:1 cetuximab | 147 |  | 
3 | 10:1 thiolation linker:HSA | 159.8 | 159 | 
4 | 20:1 thiolation linker:HSA | 171.5 | 166 | 
5 | 30:1 thiolation linker:HSA | 175.8 | 215.9 | 
6 | 40:1 thiolation linker:HSA | 196.4 | 734.1 | 
7 | trastuzumab: anti-HER2 antibody |  |  | GI50 [2]: > 13.5 µM; IC50 [2]: > 13.5 µM; GI50 [3]: > 13.5 µM; IC50 [3]: > 13.5 µM; GI50 [4]: > 13.5 µM; IC50 [4]: > 13.5 µM; GI50 [5]: > 13.5 µM; IC50 [5]: > 13.5 µM
